Data on two molecules can be found in ChEMBL document CHEMBL4765270, “Piperidine propionamide as a scaffold for potent sigma-1 receptor antagonists and mu opioid receptor agonists for treating neuropathic pain” (Eur J Med Chem, 2020).

The chains behind the UniProt entries cited, without tags or fusion partners.
UniProt Q60492, whole entry, looked up: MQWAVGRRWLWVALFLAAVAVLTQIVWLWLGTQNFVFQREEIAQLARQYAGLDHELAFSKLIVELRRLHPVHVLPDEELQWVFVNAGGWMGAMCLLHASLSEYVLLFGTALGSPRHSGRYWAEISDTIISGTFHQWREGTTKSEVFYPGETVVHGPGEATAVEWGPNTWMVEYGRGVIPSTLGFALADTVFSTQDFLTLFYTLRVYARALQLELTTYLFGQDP

In the assay the target is Sigma non-opioid intracellular receptor 1 (Cavia porcellus, UniProt Q60492). The assay is described as follows: Displacement of [3H]-(+)-pnetazocin from sigma1 receptor in guinea pig brain membrane incubated for 120 mins by scintillation counting method.

By Ki is commonly meant the equilibrium dissociation constant of an inhibitor or competing ligand from its target. Low values mean higher affinity, high ones lower affinity. Turning to `C[C@H]1[C@H]2Cc3ccc(O)cc3[C@@]1(C)CCN2CCc1ccccc1`, the inhibition constant (Ki) worked out at 3.9 nM. With `C[C@@H]1[C@@H]2Cc3ccc(O)cc3[C@]1(C)CCN2CCc1ccccc1`, the affinity, expressed as Ki, was 61.7 nM.
